The chains behind the UniProt entries cited, without tags or fusion partners.
UniProt P30536, whole entry: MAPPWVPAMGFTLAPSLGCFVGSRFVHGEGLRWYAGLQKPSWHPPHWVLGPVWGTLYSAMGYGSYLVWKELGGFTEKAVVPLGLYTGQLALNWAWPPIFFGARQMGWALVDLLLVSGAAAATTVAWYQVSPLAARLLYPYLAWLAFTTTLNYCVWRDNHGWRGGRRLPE

According to ChEMBL document CHEMBL1649086, “Evaluation of novel N1-methyl-2-phenylindol-3-ylglyoxylamides as a new chemotype of 18 kDa translocator protein-selective ligand suitable for the development of positron emission tomography radioligands” (J Med Chem, 2011):

Tests used:
Type in all cases: cell membranes
Translocator protein [1] = target: T1, Translocator protein (Homo sapiens, UniProt P30536); test: Displacement of [11C]PK11195 from high affinity binding site of TSPO in human brain membrane homogenate by scintillation counting
Translocator protein [2] = target: T1, Translocator protein; test: Displacement of [11C]PK11195 from mixed affinity binding site of TSPO in human brain membrane homogenate by scintillation counting
Translocator protein [3] = target: T1, Translocator protein; test: Displacement of [11C]PK11195 from low affinity binding site of TSPO in human brain membrane homogenate by scintillation counting

**Q.** For `CCCN(CCC)C(=O)C(=O)c1c(-c2ccc([N+](=O)[O-])cc2)n(C)c2ccccc12`, which Ki (Translocator protein [1]) is on record?
**A.** 1.57 nM

**Q.** And the Ki (Translocator protein [2])?
**A.** 1.82 nM

**Q.** What about the Ki (Translocator protein [3]) of the same molecule?
**A.** 9.53 nM
